Literature values as cited in patent US20260317706A1, “COMPOSITION FOR INDUCING STEM CELLS TO DIFFERENTIATE INTO ASTROCYTES, CONTAINING CPI-455” (CHUNG ANG UNIVERSITY INDUSTRY ACADEMIC COOPERATION …, priority 2023, published 2026).

System: STAT3
Conditions: human oral carcinoma cells; cited from earlier work

B1: recombinant BMP2: one of the TGF-beta family cytokines, a polypeptide dimer composed of 114 amino acids (protein, UniProt P12643 283-396, looked up)
Bone morphogenetic protein 2: QAKHKQRKRLKSSCKRHPLYVDFSDVGWNDWIVAPPGYHAFYCHGECPFPLADHLNSTNHAIVQTLVNSVNSKIPKACCVPTELSAISMLYLDENEKVVLKNYQDMVVEGCGCR
STAT3 phosphorylation: increased
